Reference: US9168317B2, “In vivo imaging method of mood disorders” (GE Healthcare Limited, priority 2010, dated 2015)

Experiment: In vivo biodistribution method
Settings: ratio olfactory bulb:striatum, 30 min after injection, Wistar rats

## CCN(CC)C(=O)C1CCCc2c1c1cc(F)ccc1n2CC[18F] (stereo not shown) [compound 9]
  OB:Str 30 min: 3.72
